Experimental data reported in paper PMC4856418 (FEBS Open Bio, 2016).

The chains behind the UniProt entries cited, without tags or fusion partners.
UniProt Q9NVS9, whole entry R95C: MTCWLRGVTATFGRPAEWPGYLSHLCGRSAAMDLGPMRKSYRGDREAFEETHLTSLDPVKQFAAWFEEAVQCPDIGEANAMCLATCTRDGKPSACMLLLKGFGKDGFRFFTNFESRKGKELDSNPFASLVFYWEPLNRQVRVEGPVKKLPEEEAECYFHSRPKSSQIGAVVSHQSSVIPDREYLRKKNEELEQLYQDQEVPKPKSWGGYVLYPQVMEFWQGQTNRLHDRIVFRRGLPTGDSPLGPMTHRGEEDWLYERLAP

What was measured:
[1] = molecular target: T1, hPNPO (human pyridoxine 5'-phosphate oxidase) (Homo sapiens, UniProt Q9NVS9, R95C); experiment: biochemical
T1 construct: gene PNPO

[2] = molecular target: T2, hPNPO (human pyridoxine 5'-phosphate oxidase) (Homo sapiens, UniProt Q9NVS9); experiment: biochemical
T2 construct: gene PNPO

Cc1cc2nc3c(=O)[nH]c(=O)nc-3n(C[C@H](O)[C@H](O)[C@H](O)COP(=O)(O)O)c2cc1C [FMN]
Kd [1]: 354 ± 12 nM | Kd [2]: 24 ± 3 nM
